{"source": "patent EP0663912B1", "about": "“HETEROCYCLIC ETHER COMPOUNDS THAT ENHANCE COGNITIVE FUNCTION” (ABBOTT LABORATORIES, priority 1992, dated 1994)", "tested_on": "cholinergic channel receptors in PC12 cells", "assay": "Whole-cell patch-clamp measurement of cholinergic channel activation in NGF-differentiated PC12 cells", "format": "cell-based, rat", "details": "50 µM (-)-nicotine, individual PC12 cells A-E, holding potential -60 mV", "source_text": "B. Protocols for the Determination of Cholinergic Channel Activation in PC12 Cells.\nThe cholinergic channel activator properties of Example 9 were investigated in PC12 cells using the whole-cell patch-clamp approach to measure current flow through ligand-gated membrane channels. […]\nPC12 cells are a rat pheochromocytoma cell line that, upon treatment with nerve growth factor (NGF) differentiate into a neuronal phenotype and express nicotinic cholinergic channels (Greene & Tischier, Proceedings of the National Academy of Sciences of the United States of America, 73: 2424-2428, 1976; Dichter et al., Nature, 268: 501-504, 1977). Prominent neuronal cholinergic channel subunits in these cells are α3, α5, β2, β3 and β4 (Rogers et al., Journal of Neuroscience, 12: 4611-4623, 1992). […]\nThe whole-cell patch-clamp technique was used to record voltage-activated currents and ligand-gated currents activated by substances applied through the U-tube flow-reversal technique (Fenwick et al., The Journal of Physiology (London) 331: 577-597, 1982). […] Voltage-gated inward (sodium) and outward (potassium) currents were monitored throughout the experiment to determine establishment and maintenance of the whole-cell recording configuration. […]", "data": [{"compound": "CN1CCCC1c1cccnc1", "note": "(single isomer, unassigned; (-)) [(-)-nicotine, reference compound]", "values": [{"measurement": "CURRENT AT PEAK", "result": 283, "unit": "pA"}]}]}
